Molecular target: MAP kinase p38 (Homo sapiens, UniProt O15264+Q15759+Q16539+P53778)
Assay: Inhibition of p38 MAPK activity assessed as EGFR phosphorylation
Format: protein assay

Chains of the proteins cited; added tags and fusions are not shown. Lines headed by an entry give the natural chain unless they say otherwise; changes in a name come on top.
UniProt O15264: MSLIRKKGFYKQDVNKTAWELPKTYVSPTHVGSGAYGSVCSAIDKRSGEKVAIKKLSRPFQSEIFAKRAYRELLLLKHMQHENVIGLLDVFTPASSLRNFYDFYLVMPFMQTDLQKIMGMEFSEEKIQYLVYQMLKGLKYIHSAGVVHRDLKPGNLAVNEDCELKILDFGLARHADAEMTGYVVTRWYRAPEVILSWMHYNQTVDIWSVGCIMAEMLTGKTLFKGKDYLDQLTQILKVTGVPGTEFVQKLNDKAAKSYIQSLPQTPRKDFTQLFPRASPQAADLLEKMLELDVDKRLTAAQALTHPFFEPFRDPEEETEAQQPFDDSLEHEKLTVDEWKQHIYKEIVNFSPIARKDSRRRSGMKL
UniProt Q15759: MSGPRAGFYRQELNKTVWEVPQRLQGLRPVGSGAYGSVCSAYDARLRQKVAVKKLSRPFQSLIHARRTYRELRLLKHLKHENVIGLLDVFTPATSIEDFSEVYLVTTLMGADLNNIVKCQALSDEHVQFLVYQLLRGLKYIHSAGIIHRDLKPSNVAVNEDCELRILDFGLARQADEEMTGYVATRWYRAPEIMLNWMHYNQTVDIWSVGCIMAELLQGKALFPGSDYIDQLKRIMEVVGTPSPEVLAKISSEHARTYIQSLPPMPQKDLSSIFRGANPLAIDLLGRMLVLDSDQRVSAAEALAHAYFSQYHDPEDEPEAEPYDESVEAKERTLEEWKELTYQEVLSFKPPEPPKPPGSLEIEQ
UniProt Q16539: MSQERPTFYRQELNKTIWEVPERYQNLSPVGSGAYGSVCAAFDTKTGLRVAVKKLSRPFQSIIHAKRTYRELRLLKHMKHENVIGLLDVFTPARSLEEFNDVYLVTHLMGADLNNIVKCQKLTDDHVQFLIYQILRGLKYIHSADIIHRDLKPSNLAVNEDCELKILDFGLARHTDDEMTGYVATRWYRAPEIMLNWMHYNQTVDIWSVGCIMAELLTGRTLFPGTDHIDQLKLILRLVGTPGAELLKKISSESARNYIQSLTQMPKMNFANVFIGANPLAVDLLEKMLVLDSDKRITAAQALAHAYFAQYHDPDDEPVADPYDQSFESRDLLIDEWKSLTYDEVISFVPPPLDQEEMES
UniProt P53778: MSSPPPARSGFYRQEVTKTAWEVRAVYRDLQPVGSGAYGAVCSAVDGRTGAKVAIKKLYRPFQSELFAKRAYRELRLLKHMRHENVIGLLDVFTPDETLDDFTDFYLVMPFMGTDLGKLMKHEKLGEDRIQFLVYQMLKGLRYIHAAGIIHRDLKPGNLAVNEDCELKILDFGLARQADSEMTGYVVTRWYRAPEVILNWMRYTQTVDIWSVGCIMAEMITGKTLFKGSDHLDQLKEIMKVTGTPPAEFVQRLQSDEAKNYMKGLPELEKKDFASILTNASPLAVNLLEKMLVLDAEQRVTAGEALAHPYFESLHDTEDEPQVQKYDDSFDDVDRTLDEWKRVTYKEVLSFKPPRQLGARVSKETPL

For CC1CN(c2[nH]nc(-c3ccc(Cl)cc3)c2-c2ccncc2)CC(C)N1 (stereo unspecified), the IC50 was 0.012 µM.
